# Measurements: ChEMBL document CHEMBL1250483, “Three-dimensional quantitative structure-activity relationship CoMSIA/CoMFA and LeapFrog studies on novel series of bicyclo [4.1.0] heptanes derivatives as melanin-concentrating hormone receptor R1 antagonists” (Eur J Med Chem, 2010)
# Chains of the proteins cited; added tags and fusions are not shown. Lines headed by an entry give the natural chain unless they say otherwise; changes in a name come on top.
# UniProt Q99705: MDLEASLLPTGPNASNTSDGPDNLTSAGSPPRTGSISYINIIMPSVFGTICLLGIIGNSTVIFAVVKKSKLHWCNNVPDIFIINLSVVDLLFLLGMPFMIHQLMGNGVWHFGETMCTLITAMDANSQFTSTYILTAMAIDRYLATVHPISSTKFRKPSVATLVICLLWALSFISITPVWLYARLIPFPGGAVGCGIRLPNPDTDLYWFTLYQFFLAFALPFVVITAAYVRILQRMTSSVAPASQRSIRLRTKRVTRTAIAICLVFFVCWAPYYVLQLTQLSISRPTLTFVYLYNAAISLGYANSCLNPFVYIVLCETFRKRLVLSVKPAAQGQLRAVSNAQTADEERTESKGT
# Target: Melanin-concentrating hormone receptor 1 (Homo sapiens, UniProt Q99705)
# Test: Antagonist activity at MCH1 receptor
# Assay type: functional
row,Ki [nM],SMILES
1,15,N#Cc1cccc([C@]23CCC(N(CCN4CCC[C@H]4CO)C(=O)Nc4ccc(F)c(Cl)c4)CC2C3)c1 (stereo partly drawn)
2,8.71,N#Cc1cccc([C@]23CCC(N(CC4CCN(C5CCOCC5)CC4)C(=O)Nc4ccc(F)c(Cl)c4)CC2C3)c1 (stereo partly drawn)
3,34,COC(=O)c1cccc([C@]23CCC(N(CCN(C(C)C)C(C)C)C(=O)Nc4ccc(F)c(F)c4)CC2C3)c1 (stereo partly drawn)
